Measurements reported in patent publication US20250361280A1 (Protagonist Therapeutics, Inc., priority 2022, published 2025).

Experiments:
ferroportin [1] = biological target: T1, ferroportin (Homo sapiens, UniProt Q9NP59); experiment: T47D internalization assay in presence of mouse serum albumin; assay type: cell-based; set-up: a human breast carcinoma adherent cell line which endogenously expresses ferroportin; host or cells: T47D; details: T47D cells, 0.5% mouse serum albumin, 1 hr incubation, read-out: IC50: T47D MSA
T1 sequence (Q9NP59 1-571): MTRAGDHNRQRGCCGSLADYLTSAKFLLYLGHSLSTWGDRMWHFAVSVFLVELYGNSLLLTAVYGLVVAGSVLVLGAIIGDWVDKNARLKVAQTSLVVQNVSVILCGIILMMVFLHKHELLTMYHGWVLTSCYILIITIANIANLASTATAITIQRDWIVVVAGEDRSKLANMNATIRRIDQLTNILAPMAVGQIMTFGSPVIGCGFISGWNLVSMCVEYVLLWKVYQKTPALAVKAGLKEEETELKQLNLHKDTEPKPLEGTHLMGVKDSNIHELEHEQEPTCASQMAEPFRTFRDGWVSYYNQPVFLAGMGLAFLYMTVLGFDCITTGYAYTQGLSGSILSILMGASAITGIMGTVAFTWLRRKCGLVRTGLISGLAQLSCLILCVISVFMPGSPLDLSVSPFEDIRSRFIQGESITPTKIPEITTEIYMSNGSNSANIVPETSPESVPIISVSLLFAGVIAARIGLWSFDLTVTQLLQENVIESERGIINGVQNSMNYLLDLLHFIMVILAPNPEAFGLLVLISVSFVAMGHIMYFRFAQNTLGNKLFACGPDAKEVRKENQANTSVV
Procedure, shortened: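 T47D cells exposed 1 h to 10-point peptide dilutions (top ~5 μM) preincubated 30 min with 0.5% mouse serum albumin. Then 200 nM AF647-labelled ferroportin-binding detection peptide for 2 h. Flow cytometry MFI of live singlets, IC50 by 4-parameter fit.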

ferroportin [2] = biological target: T1, ferroportin; experiment: FPN internalization assay (FPN activity assay), loss of ferroportin-GFP fluorescence; assay type: cell-based; details: HEK293 cells stably expressing ferroportin-GFP, compound at least 18 hours, read-out: IC50: FPN

| pIC50 (ferroportin [1]; Table 1D) | pIC50 (ferroportin [2]; Table 1D) | pIC50 (ferroportin [1]; Table 1C) | pIC50 (ferroportin [2]; Table 1C) | Structure (SMILES) |
| --- | --- | --- | --- | --- |
| 8.00 to 10.00 | < 6.30 | – | – | CCCCCCCCCCCCCCCC(=O)NCC[N+](C)(C)CC(=O)NCCOCCOCC(=O)NCCOCCOCC(=O)NCCCC[C@H](NC(=O)[C@@H]1CCCN1C(=O)[C@@H](NC(=O)[C@H](Cc1c[nH]cn1)NC(=O)[C@@H](NC(=O)[C@H](CCC(=O)O)NC(=O)CC(C)C)[C@@H](C)O)C(c1ccccc1)c1ccccc1)C(=O)NCCCC1CCCCC1 [compound 107] |
| 7.00 to 8.00 | 7.52 to 9.00 | – | – | CCCCCCCCCCCCCCCC(=O)NCC[N+](C)(C)CC(=O)NCCOCCOCC(=O)NCCOCCOCC(=O)NCCCC[C@H](NC(=O)[C@@H]1C[C@@H]2CN1C(=O)[C@H](C(c1ccccc1)c1ccccc1)NC(=O)[C@H](Cc1c[nH]cn1)NC(=O)[C@H]([C@@H](C)O)NC(=O)[C@@H](NC(=O)CC(C)C)CCCC(=O)N2)C(=O)NCCCCc1ccccc1 [compound 189] |
| – | – | 7.00 to 8.00 | 7.52 to 9.00 | CCCCCC(=O)NCCCC[C@H](NC(=O)[C@@H]1CCCN1C(=O)[C@@H](NC(=O)[C@H](Cc1c[nH]cn1)NC(=O)[C@@H](NC(=O)[C@H](CCC(=O)O)NC(=O)CC(C)C)[C@@H](C)O)C(c1ccccc1)c1ccccc1)C(=O)NCCCCCc1ccccc1 [compound 6] |
| < 6.30 | 7.52 to 9.00 | – | – | CC(C)CC(=O)N[C@H]1CCC(=O)NCCOc2ccc(cc2)C[C@@H](C(N)=O)NC(=O)[C@H](CCCCNC(=O)CCOCCOCCOCCOCCNC(=O)CCCc2ccc(I)cc2)NC(=O)[C@@H]2CSSC[C@H](NC1=O)C(=O)N[C@@H](Cc1c[nH]cn1)C(=O)N[C@@H](C(c1ccccc1)c1ccccc1)C(=O)N2 [compound 62] |
| < 6.30 | < 6.30 | – | – | CC(C)CC(=O)N[C@@H](CCC(=O)O)C(=O)N[C@H](C(=O)N[C@@H](Cc1c[nH]cn1)C(=O)N[C@H](C(=O)N1CCC[C@H]1C(=O)N[C@H](CCCCN)C(=O)N(CC1CC1)C(CC(C)C)C(=O)O)C(c1ccccc1)c1ccccc1)[C@@H](C)O (some centres unmarked) [compound 150] |
| 8.00 to 10.00 | 7.52 to 9.00 | – | – | CCCCCCCCCCCCCCCC(=O)N[C@@H](CCCC[N+](C)(C)C)C(=O)NCCOCCOCC(=O)NCCOCCOCC(=O)NCCCC[C@H](NC(=O)[C@@H]1CCCN1C(=O)[C@@H](NC(=O)[C@H](Cc1c[nH]cn1)NC(=O)[C@@H](NC(=O)[C@H](CCC(=O)O)NC(=O)CC(C)C)[C@@H](C)O)C(c1ccccc1)c1ccccc1)C(=O)NCCCCc1ccccc1 [compound 201] |
| < 6.30 | < 6.30 | – | – | COC(=O)CCC(CCCC(C)C)C(=O)N[C@H]1CSSC[C@@H](C(=O)N[C@@H](CCCC[N+](C)(C)C)C(=O)NCCCCc2ccccc2)NC(=O)[C@H](C(c2ccccc2)c2ccccc2)NC(=O)[C@H](Cc2c[nH]cn2)NC1=O (some centres unmarked) [compound 177] |
| 8.00 to 10.00 | 7.52 to 9.00 | – | – | CCCCCCCCCCCCCCCC(=O)N[C@@H](CCCC[N+](C)(C)C)C(=O)NCCOCCOCC(=O)NCCOCCOCC(=O)NCCCC[C@H](NC(=O)[C@@H]1C[C@@H]2CN1C(=O)[C@H](C(c1ccccc1)c1ccccc1)NC(=O)[C@H](Cc1c[nH]cn1)NC(=O)[C@@H]1C[C@@H](CN1C(=O)[C@H](CCC(=O)O)NC(=O)CC(C)C)SS2)C(=O)NCCCCc1ccccc1 [compound 168] |
| 8.00 to 10.00 | < 6.30 | – | – | CCCCCCCCCCCCCCCC(=O)NCC[N+](C)(C)CC(=O)NCCOCCOCC(=O)NCCOCCOCC(=O)NCCCC[C@H](NC(=O)[C@@H]1CCCN1C(=O)[C@@H](NC(=O)[C@H](Cc1c[nH]cn1)NC(=O)[C@@H]1CCCN1C(=O)[C@H](CCC(=O)O)NC(=O)CC(C)C)C(c1ccccc1)c1ccccc1)C(=O)NCCCCCc1ccccc1 [compound 111] |
| 6.30 to 7.00 | < 6.30 | – | – | CCCCCCCCCCCCCCCC(=O)NCC[N+](C)(C)CC(=O)NCCOCCOCC(=O)NCCOCCOCC(=O)NCCCC[C@H](NC(=O)[C@@H]1CCCN1C(=O)[C@@H](NC(=O)[C@H](Cc1c[nH]cn1)NC(=O)[C@@H](NC(=O)C(CCCC(C)C)CCC(=O)OC)[C@@H](C)O)C(c1ccccc1)c1ccccc1)C(=O)NCCCCc1ccccc1 (some centres unmarked) [compound 214] |
| 6.30 to 7.00 | 7.00 to 7.52 | – | – | CC(C)CC(=O)N[C@@H](CCC(=O)O)C(=O)N[C@H](C(=O)N[C@@H](Cc1c[nH]cn1)C(=O)N[C@H](C(=O)N1CCC[C@H]1C(=O)N[C@H](CCCCN)C(=O)N(CC1CC1)C(CCc1ccccc1)C(N)=O)C(c1ccccc1)c1ccccc1)[C@@H](C)O (some centres unmarked) [compound 153] |
| 7.00 to 8.00 | 7.52 to 9.00 | – | – | CCCCCCCCCCCCCCCC(=O)N[C@@H](CCC(=O)NCC[N+](C)(C)CC(=O)NCCCC[C@H](NC(=O)[C@@H]1CCCN1C(=O)[C@@H](NC(=O)[C@H](Cc1c[nH]cn1)NC(=O)[C@@H](NC(=O)[C@H](CCC(=O)O)NC(=O)CC(C)C)[C@@H](C)O)C(c1ccccc1)c1ccccc1)C(=O)NCCCCCc1ccccc1)C(=O)O [compound 89] |
| – | – | 8.00 to 10.00 | 7.52 to 9.00 | CCCCCCCCCCCCCCCC(=O)NCC[N+](C)(C)CC(=O)NCCOCCOCC(=O)NCCOCCOCC(=O)NCCCC[C@H](NC(=O)[C@@H]1CCCN1C(=O)[C@@H](NC(=O)[C@H](Cc1c[nH]cn1)NC(=O)[C@@H](NC(=O)[C@H](CCC(=O)O)NC(=O)CC(C)C)[C@@H](C)O)C(c1ccccc1)c1ccccc1)C(=O)NCC(c1ccccc1)c1ccccc1 [compound 26] |
| 8.00 to 10.00 | < 6.30 | – | – | CCCCCCCCCCCCCCCC(=O)NCC[N+](C)(C)CC(=O)NCCOCCOCC(=O)NCCOCCOCC(=O)NCCCC[C@H](NC(=O)[C@@H]1CCCN1C(=O)[C@@H](NC(=O)[C@H](Cc1c[nH]cn1)NC(=O)[C@@H](NC(=O)[C@H](CCC(=O)O)NC(=O)CC(C)C)[C@@H](C)O)C(c1ccccc1)c1ccccc1)C(=O)NC1CCC(c2ccccc2)CC1 (some centres unmarked) [compound 100] |
| 7.00 to 8.00 | 7.52 to 9.00 | – | – | CCCCCCCCCCCCCCCC(=O)NCC[N+](C)(C)CC(=O)NCC[N+](C)(C)CC(=O)NCCCC[C@H](NC(=O)[C@@H]1CCCN1C(=O)[C@@H](NC(=O)[C@H](Cc1c[nH]cn1)NC(=O)[C@@H](NC(=O)[C@H](CCC(=O)O)NC(=O)CC(C)C)[C@@H](C)O)C(c1ccccc1)c1ccccc1)C(=O)NCCCCCc1ccccc1 [compound 71] |
| 7.00 to 8.00 | 7.52 to 9.00 | – | – | CCCCCCCCCCCCCCCC(=O)N[C@@H](CN)C(=O)NCCCC[C@H](NC(=O)[C@@H]1CCCN1C(=O)[C@@H](NC(=O)[C@H](Cc1c[nH]cn1)NC(=O)[C@@H](NC(=O)[C@H](CCC(=O)O)NC(=O)CC(C)C)[C@@H](C)O)C(c1ccccc1)c1ccccc1)C(=O)NCCCCc1ccccc1 [compound 202] |
| – | – | 7.00 to 8.00 | 7.00 to 7.52 | CCCCCCCCCCCCCCCC(=O)NCCCCCC(=O)NCCCC[C@H](NC(=O)[C@@H]1CCCN1C(=O)[C@@H](NC(=O)[C@H](Cc1c[nH]cn1)NC(=O)[C@@H](NC(=O)[C@H](CCC(=O)O)NC(=O)CC(C)C)[C@@H](C)O)C(c1ccccc1)c1ccccc1)C(=O)N[C@H](C(=O)N(C)CCN)C(c1ccccc1)c1ccccc1 [compound 12] |
| 6.30 to 7.00 | 6.30 to 7.00 | – | – | CC(C)CC(=O)N[C@H]1CCC(=O)NCCCC[C@H](C(N)=O)NC(=O)[C@H](C(c2ccccc2)c2ccccc2)NC(=O)[C@H](CCCCNC(=O)[C@H](CN)NC(=O)CCCc2ccc(I)cc2)N(C)C(=O)[C@H](C2CCCCC2)NC(=O)[C@@H]2CSSC[C@H](NC1=O)C(=O)N[C@@H](Cc1c[nH]cn1)C(=O)N[C@@H](C(c1ccccc1)c1ccccc1)C(=O)N2 [compound 77] |
| – | – | 7.00 to 8.00 | 6.30 to 7.00 | CCCCCCCCCCCCCCCC(=O)NCCCCCC(=O)NCCCC[C@H](NC(=O)[C@@H]1CCCN1C(=O)[C@@H](NC(=O)[C@H](Cc1c[nH]cn1)NC(=O)[C@@H](NC(=O)[C@H](CCC(=O)O)NC(=O)CC(C)C)[C@@H](C)O)C(c1ccccc1)c1ccccc1)C(=O)N[C@@H](Cc1ccc(OCCN)cc1)C(N)=O [compound 31] |
| 6.30 to 7.00 | < 6.30 | – | – | CCCCCCCCCCCCCCCC(=O)N[C@@H](CN)C(=O)NCCOCCOCC(=O)NCCOCCOCC(=O)NCCCC[C@H](NC(=O)[C@@H]1CSSC[C@H](NC(=O)C(CCCC(C)C)CCC(=O)OC)C(=O)N[C@@H](Cc2c[nH]cn2)C(=O)N[C@@H](C(c2ccccc2)c2ccccc2)C(=O)N1)C(=O)NCCCCc1ccccc1 (some centres unmarked) [compound 175] |
| 8.00 to 10.00 | < 6.30 | – | – | CCCCCCCCCCCCCCCC(=O)NCC[N+](C)(C)CC(=O)NCCOCCOCC(=O)NCCOCCOCC(=O)NCCCC[C@H](NC(=O)[C@@H]1CCCN1C(=O)[C@@H](NC(=O)[C@H](Cc1c[nH]cn1)NC(=O)[C@@H](NC[C@H](CCC(=O)O)NC(=O)CC(C)C)[C@@H](C)O)C(c1ccccc1)c1ccccc1)C(=O)NCCCCCc1ccccc1 [compound 109] |

| Structure (SMILES) | pIC50 (ferroportin [1]; Table 1D) | pIC50 (ferroportin [2]; Table 1D) | pIC50 (ferroportin [1]; Table 1C) | pIC50 (ferroportin [2]; Table 1C) |
| --- | --- | --- | --- | --- |
| CCCCCCCCCCCCCCCC(=O)NCC[N+](C)(C)CC(=O)NCCCCCC(=O)NCCCC[C@H](NC(=O)[C@@H]1C[C@@H]2CN1C(=O)[C@H](C(c1ccccc1)c1ccccc1)NC(=O)[C@H](Cc1c[nH]cn1)NC(=O)[C@@H](NC(=O)[C@H](CCC(=O)O)NC(=O)CC(C)C)CSS2)C(=O)NCCCCc1ccccc1 [compound 22] | – | – | 7.00 to 8.00 | 7.52 to 9.00 |

pIC50: −log10 of the molar value.
